Experimental findings from patent US6462076B2 are described below.

Sequences of proteins named here, by UniProt entry; tags and fusion partners are left off. Residues count along the entry.
UniProt P43235, 115-329 limits assumed: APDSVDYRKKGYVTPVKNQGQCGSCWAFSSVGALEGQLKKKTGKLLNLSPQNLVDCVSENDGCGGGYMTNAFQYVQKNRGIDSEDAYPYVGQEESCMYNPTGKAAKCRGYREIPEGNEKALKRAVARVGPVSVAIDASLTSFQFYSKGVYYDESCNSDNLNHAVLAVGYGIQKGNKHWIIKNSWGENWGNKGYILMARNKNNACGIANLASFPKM
UniProt P25774, 115-331 limits assumed: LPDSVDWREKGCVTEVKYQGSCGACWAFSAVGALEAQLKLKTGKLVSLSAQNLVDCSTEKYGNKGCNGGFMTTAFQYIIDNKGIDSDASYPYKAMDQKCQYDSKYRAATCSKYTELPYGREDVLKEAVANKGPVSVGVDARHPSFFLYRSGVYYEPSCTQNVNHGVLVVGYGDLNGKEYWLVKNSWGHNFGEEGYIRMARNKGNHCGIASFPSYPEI
UniProt P07711, 114-333 limits assumed: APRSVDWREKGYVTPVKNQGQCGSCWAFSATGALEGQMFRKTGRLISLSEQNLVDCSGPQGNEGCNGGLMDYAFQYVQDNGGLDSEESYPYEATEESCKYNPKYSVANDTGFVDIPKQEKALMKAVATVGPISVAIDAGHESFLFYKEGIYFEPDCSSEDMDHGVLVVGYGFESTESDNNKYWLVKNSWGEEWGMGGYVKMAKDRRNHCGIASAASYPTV

In assay [1] the target is human recombinant cathepsin K (Homo sapiens, UniProt P43235). In words: cathepsin K inhibitory activity, fluorogenic substrate Z-Leu-Arg-MCA. The note with it: read-out: Cathepsin K IC50; enzyme 1 nM, substrate 5 μM, pH 5.5, room temperature. The protocol:
(§1) The inhibitory activity of the compounds against cathepsin K, S, L and B was tested at room temperature in 96-wells opaque white polystyrene plates (Costar). The cathepsin K inhibitory activity was tested as follows:
5 μl of an inhibitor diluted in 5 mM sodium phosphate, NaCl 15 mM pH 7.4 containing 1% DMSO (final concentrations: 10-0.0001 μM) were preincubated for 10 min with 35 μl of human recombinant cathepsin K (final concentration: 1 nM) diluted in assay buffer (100 mM sodium acetate pH 5.5 containing 5 mM EDTA and 20 mM cysteine). After addition of 10 μl of the fluorogenic substrate Z-Leu-Arg-MCA diluted in assay buffer (final concentration: 5 μM), increase of fluorescence (excitation at 390 nm and emission at 460 nm) was measured for 7.5 min every 45 sec. The initial velocity (RFU/min) was derived from the linear fit of the 11 reading points.
(§2) The results are given as IC50 values which denote the concentration of the inhibitor at which the enzymatic activity is inhibited by 50%. The IC50 values are determined from a linear regression curve from a logit-log plot.

Assay [2] deals with Human recombinant cathepsin S (Homo sapiens, UniProt P25774). In words: cathepsin S inhibitory activity, fluorogenic substrate Z-Val-Val-Arg-MCA. The note with it: read-out: Cathepsin S IC50; enzyme 0.5 nM, substrate 20 μM, pH 6.5, room temperature. The protocol:
as §1
Cathepsin S inhibitory activity was assayed analogeously to the cathepsin K inhibitory activity, except that the buffer was 100 mM potassium phosphate, 5 mM EDTA, 5 mM DTT (freshly added), 0.01% Triton X-100, pH 6.5 and the fluorogenic substrate was Z-Val-Val-Arg-MCA (Bachem) (final concentration: 20 μM). Human recombinant cathepsin S (Maubach et al., Eur. J. Biochem. 1997, 250, 745-750) was used at a final concentration of 0.5 nM.
as §2

Assay [3] concerns the target human liver cathepsin L (Homo sapiens, UniProt P07711). In words: cathepsin L inhibitory activity, same conditions as cathepsin K. To be noted: read-out: Cathepsin L IC50; enzyme 3 nM, room temperature. The protocol: as §1
The cathepsin L inhibitory activity was assayed under the same conditions as the cathepsin K inhibitory activity using, human liver cathepsin L (Calbiochem) at a final concentration of 3 nM.
as §2

Assay [4] has as its target human liver cathepsin B (Homo sapiens, UniProt P07858). In words: cathepsin B inhibitory activity, same conditions as cathepsin K. To be noted: read-out: Cathepsin B IC50; enzyme 1 nM, room temperature. The protocol: as §1
The cathepsin B inhibitory activity was assayed under the same conditions as the cathepsin K inhibitory activity using human liver cathepsin B (Calbiochem) at a final concentration of 1 nM.
as §2

For the molecule `N#C[C@@H](NC(=O)[C@@H]1CCCC[C@H]1NC(=O)OCc1ccccc1)c1cccc(O)c1`, the IC50 in assay [1] was 0.005 µM; in assay [2], greater than 10 µM; in assay [3], 4.7 µM; in assay [4], 4.6 µM.
Turning to `COc1ccc(C(C#N)NC(=O)[C@@H]2CCCC[C@@H]2NC(=O)/C=C/c2ccccc2)cc1OC` (relative stereo), the IC50 in assay [3] worked out at 1.2 µM; in assay [4] it was 0.095 µM.
On to `COc1cccc(C(C#N)NC(=O)[C@@H]2CCCC[C@@H]2NC(=O)OCc2ccccc2)c1` (relative stereo), for which the IC50 in assay [1] was determined as 0.016 µM; in assay [2] it was 1.26 µM; in assay [3], 0.58 µM; in assay [4] it was 0.44 µM.
Take `Cc1cccc(C(C#N)NC(=O)[C@@H]2CCCC[C@@H]2NC(=O)OCc2ccccc2)c1` (relative stereo): the IC50 turned out to be 0.029 µM in assay [1], 2.61 µM in assay [2], 1.38 µM in assay [3] and 0.64 µM in assay [4].
Consider `N#CC(NC(=O)[C@@H]1CCCC[C@H]1NC(=O)OCc1ccccc1)c1ccc2c(c1)OCO2` (relative stereo), for which the IC50 is 0.027 µM in assay [1], greater than 10 µM in assay [2], 4.69 µM in assay [3] and 1.38 µM in assay [4].
